The record followed here is PubChem BioAssay AID686940 (The Scripps Research Institute Molecular Screening Center, 2013).

By UniProt entry, the sequences of proteins in these tests, tags left out.
UniProt P24468, whole entry: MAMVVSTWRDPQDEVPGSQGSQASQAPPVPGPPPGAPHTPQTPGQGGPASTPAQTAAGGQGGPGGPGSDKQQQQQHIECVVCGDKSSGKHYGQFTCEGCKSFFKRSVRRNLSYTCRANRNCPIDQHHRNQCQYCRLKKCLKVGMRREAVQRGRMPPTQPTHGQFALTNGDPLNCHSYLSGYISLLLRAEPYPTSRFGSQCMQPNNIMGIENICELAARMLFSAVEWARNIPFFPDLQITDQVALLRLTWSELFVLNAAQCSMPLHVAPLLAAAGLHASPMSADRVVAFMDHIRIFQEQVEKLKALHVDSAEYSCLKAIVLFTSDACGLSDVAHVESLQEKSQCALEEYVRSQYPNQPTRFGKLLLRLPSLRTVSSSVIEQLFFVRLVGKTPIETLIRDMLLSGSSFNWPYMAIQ

The list shows a part of the results, in another mix than the full data. Some results for these compounds are left out of this collection, so the calls shown say nothing about other tests. Calls of active or inactive are those of the source.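 Rule for the calls: active = inhibition above a per-plate cutoff, mean inhibition of test wells between control levels plus 3 SD (cut at about 38% in these data); inactive = the rest.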

The inhibition is the change of the read-out against control, counted positive when it falls.

The target of this experiment is COUP transcription factor 2 (Homo sapiens) (UniProt P24468). In words: NR2F2 transcriptional activity inhibitors, primary screen, cell-based, luciferase reporter, HEK293T, luminescence (AID 686940).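 Note: cells cotransfected with COUP-TFII expression vector driving the NGFI-A reporter; 0% = median of COUP-TF2 test wells and 100% = reporter-only cells.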 To be noted: HEK293T NGFI-A luciferase reporter, at 8.6 µM, stronger effect = higher value.
In the case of `O=C(OC1CN2CCC1CC2)C(CO)(c1ccccc1)c1ccccc1` (stereo unspecified), the inhibition was inactive: 1.83%.

With `CN(C)c1cccc(C(=O)NCC2(N(C)C)CCCCC2)c1`, the inhibition is inactive: -13.5%.

Regarding `O=C(OCCN1CCCC1)C(O)(c1ccccc1)c1ccccc1`, the inhibition was inactive: 15.6%.

`CC(C)Oc1ccc(C(=O)NCC2(N(C)C)CCCCC2)cc1`: the inhibition was inactive: 6.01%.

For the compound `COc1ccc(Br)c(C(=O)NCC2(N3CCCCC3)CCCCC2)c1`, the inhibition was inactive: -0.36%.

On to `C=C(C)C#CC(O)(C(=O)OC1CCN(C)CC1)c1ccccc1` (stereo unspecified), for which the inhibition was inactive: 6.49%.

Turning to `COc1cc(C(=O)NCC2(N(C)C)CCCCC2)c([N+](=O)[O-])cc1OC`, the inhibition is inactive: -7.48%.

Turning to `CN(C)C1(CNC(=O)c2ccc(Br)cc2)CCCCC1`, the inhibition is inactive: 12.2%.

With `O=C(NCC1(N2CCCCC2)CCCCC1)c1cccc(Cl)c1`, the inhibition is inactive: 10.8%.

Regarding `COc1ccc(Cl)cc1C(=O)NCC1(N(C)C)CCCCC1`, the inhibition was inactive: -35.2%.

Regarding `COc1cccc(C(=O)NCC2(N3CCCCC3)CCCCC2)c1`, the inhibition is inactive: 1.55%.

Take `CN(C)c1ccc(C(=O)NCC2(N(C)C)CCCCC2)cc1`: the inhibition is inactive: -0.51%.

As for `CN(C)C1CCCC1OC(=O)C(O)(c1ccccc1)c1ccccc1` (stereo unspecified), the inhibition is inactive: 6.76%.

Regarding `Cc1ccccc1C(=O)NCC1(N2CCCCC2)CCCCC1`, the inhibition is inactive: 19.3%.

As for `O=C(NCC1(N2CCCCC2)CCCCC1)c1cccc(Br)c1`, the inhibition was inactive: -15.5%.

As for `CCN1CCCC(OC(=O)C2(O)c3ccccc3C=Cc3ccccc32)C1` (stereo unspecified), the inhibition is inactive: 5.15%.

As for `Cc1cc(C(=O)NCC2(N3CCCCC3)CCCCC2)ccc1[N+](=O)[O-]`, the inhibition was inactive: -2.93%.

As for `COc1ccc(C(=O)NCC2(N(C)C)CCCCC2)cc1`, the inhibition is inactive: 12.6%.

Turning to `O=C(NCC1(N2CCCCC2)CCCCC1)c1cc(F)c(F)cc1Cl`, the inhibition is inactive: -3.62%.

`C=CCN1CCN(CCOC(=O)C(O)(c2ccccc2)c2ccccc2)CC1`: the inhibition was inactive: -5.19%.

`CN1[C@@H]2CC[C@H]1CC(OC(=O)C(O)(c1ccccc1)c1ccccc1)C2` (stereo partly specified): the inhibition is inactive: 3.03%.

Regarding `O=C(NCC1(N2CCCCC2)CCCCC1)c1cc([N+](=O)[O-])ccc1Cl`, the inhibition was inactive: -0.03%.

In the case of `Cc1ccc(C(=O)NCC2(N3CCCCC3)CCCCC2)cc1`, the inhibition is inactive: 1.24%.

As to `CC(C)N1C(=O)CC2(CCN(CCOC(=O)C(O)(c3ccccc3)c3ccccc3)CC2)C1=O`, the inhibition is inactive: -7.99%.

Turning to `COc1cc(SC)ccc1C(=O)NCC1(N(C)C)CCCCC1`, the inhibition was inactive: -6.01%.

On to `CCN(CC)CC(C)C(C)OC(=O)C(O)(c1ccccc1)c1ccccc1` (stereo unspecified), for which the inhibition is inactive: 12.8%.
